Values quoted from earlier work as cited in paper PMC3131558, “Plitidepsin Has a Safe Cardiac Profile: A Comprehensive Analysis” (Marine Drugs, 2011).

What was measured:
[1] = test system: dog; settings: cited from earlier work
Excerpt: (§1) Plitidepsin has neither shown cardiac toxicity during preclinical/toxicology studies nor has been reported in early phase I clinical trials.

[2] = test system: patients; settings: sudden death attributed to possible fatal ventricular arrhythmia; cited from earlier work
Excerpt: as §1

Substance: FK228
- Cardiotoxic effects in preclinical toxicology studies in dog [1]: cardiotoxic effects
- Cardiac findings in phase II clinical trials [2]: QTc prolongation, moderate ventricular tachycardia and sudden death
